# AlphaSeq binding of Ab-14 heavy chain variants to a spike HR2 peptide

Source: Engelhart et al. 2022 (doi:10.1038/s41597-022-01779-4), MIT Lincoln Laboratory and A-Alpha Bio; data file from the FLAb repository.

Binding partner: SARS-CoV-2 spike HR2 peptide, sequence PDVDLGDISGINAS.

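The parent was found by panning a naive human phage display library on the peptide. The library (AAYL49) carries one to three amino acid substitutions per variant, with no insertions or deletions. The assay is AlphaSeq: two haploid yeast populations carry antibody and antigen on their surface. Pairs that bind mate more often; barcode pairs of the diploids are counted by sequencing. A regression on co-assayed BCL2-family reference pairs converts the normalised counts of each replicate to an apparent Kd. The assay was run in three technical replicates.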

Parent: Ab-14, a human scFv built as VH, the linker GGGGSGGGGSGGGGS, VL. Only the CDRs of the heavy chain vary.
VH: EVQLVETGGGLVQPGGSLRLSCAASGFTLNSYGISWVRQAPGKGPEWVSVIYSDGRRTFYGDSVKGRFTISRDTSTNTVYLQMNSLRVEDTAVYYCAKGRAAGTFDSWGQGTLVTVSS
VL: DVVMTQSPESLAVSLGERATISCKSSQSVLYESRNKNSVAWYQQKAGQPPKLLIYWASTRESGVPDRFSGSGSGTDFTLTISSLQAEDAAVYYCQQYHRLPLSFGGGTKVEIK

Positions count from residue 1 of the parent VH; D62C puts C in place of D. Every variant below is changed at D106 of the VH (sequential numbering). Affinities are written as log10 Kd with Kd in nM; a lower number is a better binder. The mean shown is taken over the replicates in which the pair was detected. An entry "ND" has no value in the source: the pair was not observed among the diploids in that replicate. This suggests poor binding but is not conclusive.

With D62C/S63C/D106V the result was ND, 2.48, ND (controls 0 of 9). Variant Y32S/S35V/D106M gave ND, ND, ND (controls 1 of 9). With N30M/G61I/D106Q the result was ND, ND, ND (controls 0 of 9). For R56L/K65R/D106A, the assay gave 2.62, 3.87, 2.51 (mean 3.00; controls 1 of 9). Variant F27E/F59I/D106G gave 3.87, 2.68, 3.18 (mean 3.24; controls 0 of 9). Variant V50F/Y60C/D106S gave ND, ND, ND (controls 1 of 9). Variant G99A/G103D/D106T gave ND, 2.77, ND (controls 1 of 9).

With Y32D/T58M/D106L the result was 5.11, ND, 5.22 (mean 5.17; controls 3 of 9). With Y32P/D106R the result was 4.29, 4.64, ND (mean 4.46; controls 4 of 9). For S35E/R57V/D106I, the assay gave ND, ND, ND (controls 1 of 9). Variant T104V/D106E gave ND, ND, ND (controls 0 of 9). Variant I34A/T104H/D106V showed 2.52, 3.31, 2.01 (mean 2.61; controls 0 of 9). Variant G26Y/N30C/D106K gave ND, ND, ND (controls 0 of 9). Variant N30C/S35K/D106G gave 4.44, ND, ND (controls 0 of 9).

For S31P/G55L/D106G, the assay gave ND, ND, ND (controls 1 of 9). For R100E/D106L, the assay gave 2.64, 2.42, 3.14 (mean 2.73; controls 6 of 9). For Y32S/V50S/D106C, the assay gave ND, 4.36, ND (controls 1 of 9). With S31G/R57N/D106N the result was ND, ND, ND (controls 0 of 9). For N30P/A102C/D106A, the assay gave ND, ND, ND (controls 1 of 9). With F27C/I34G/D106A the result was ND, ND, ND (controls 1 of 9). Variant S53P/T104D/D106R showed 1.93, 1.97, 2.60 (mean 2.17; controls 2 of 9).

Variant G33D/T104G/D106W showed ND, ND, ND (controls 1 of 9). Variant G55K/R100L/D106T showed 2.34, ND, ND (controls 0 of 9). For S31V/G33W/D106R, the assay gave ND, 3.84, ND (controls 1 of 9). Variant T58P/D106P gave 5.62, ND, ND (controls 2 of 9). Variant G55M/T104D/D106L gave 4.77, 4.94, 5.01 (mean 4.90; controls 8 of 9). Variant G33S/V50A/D106A showed ND, ND, ND (controls 4 of 9). With I34L/D106V/S107M the result was ND, ND, 3.41 (controls 0 of 9).

Variant T28N/D106K gave 0.09, 0.47, 0.26 (mean 0.27; controls 2 of 9). Variant F59Q/R100P/D106W showed ND, ND, ND (controls 0 of 9). With I34P/R57V/D106P the result was ND, ND, ND (controls 1 of 9). Variant N30A/G103A/D106H gave ND, 3.59, 4.01 (mean 3.80; controls 2 of 9). For S35Y/R100G/D106R, the assay gave ND, 3.64, 3.13 (mean 3.39; controls 2 of 9).

A selection of 5 entries from above:

The variant I34A/T104H/D106V showed 2.52, 3.31, 2.01 (mean 2.61; controls 0 of 9).
The variant I34P/R57V/D106P showed ND, ND, ND (controls 1 of 9).
The variant N30A/G103A/D106H showed ND, 3.59, 4.01 (mean 3.80; controls 2 of 9).
The variant S35Y/R100G/D106R showed ND, 3.64, 3.13 (mean 3.39; controls 2 of 9).
The variant I34L/D106V/S107M showed ND, ND, 3.41 (controls 0 of 9).

Parent in this assay: reference entry 0.65, copy in this library 4.11 (one replicate of three). Background: pairings of library AAYL49 with three empty control strains gave a value in 15% of cases (median 4.06, 5th percentile 2.83). Values in that range, when seen in few replicates, are hard to tell from nonspecific mating. For each scFv, signals with the empty controls are counted beside the result.